Assay results published in patent US10836763B2, “5 to 7 membered heterocyclic amides as JAK inhibitors” (priority 2018, dated 2020).

By UniProt entry, the sequences of proteins in these tests, tags left out. Where a name states a change or a piece, a line headed by the entry shows the natural chain unless it says otherwise.
UniProt P23458: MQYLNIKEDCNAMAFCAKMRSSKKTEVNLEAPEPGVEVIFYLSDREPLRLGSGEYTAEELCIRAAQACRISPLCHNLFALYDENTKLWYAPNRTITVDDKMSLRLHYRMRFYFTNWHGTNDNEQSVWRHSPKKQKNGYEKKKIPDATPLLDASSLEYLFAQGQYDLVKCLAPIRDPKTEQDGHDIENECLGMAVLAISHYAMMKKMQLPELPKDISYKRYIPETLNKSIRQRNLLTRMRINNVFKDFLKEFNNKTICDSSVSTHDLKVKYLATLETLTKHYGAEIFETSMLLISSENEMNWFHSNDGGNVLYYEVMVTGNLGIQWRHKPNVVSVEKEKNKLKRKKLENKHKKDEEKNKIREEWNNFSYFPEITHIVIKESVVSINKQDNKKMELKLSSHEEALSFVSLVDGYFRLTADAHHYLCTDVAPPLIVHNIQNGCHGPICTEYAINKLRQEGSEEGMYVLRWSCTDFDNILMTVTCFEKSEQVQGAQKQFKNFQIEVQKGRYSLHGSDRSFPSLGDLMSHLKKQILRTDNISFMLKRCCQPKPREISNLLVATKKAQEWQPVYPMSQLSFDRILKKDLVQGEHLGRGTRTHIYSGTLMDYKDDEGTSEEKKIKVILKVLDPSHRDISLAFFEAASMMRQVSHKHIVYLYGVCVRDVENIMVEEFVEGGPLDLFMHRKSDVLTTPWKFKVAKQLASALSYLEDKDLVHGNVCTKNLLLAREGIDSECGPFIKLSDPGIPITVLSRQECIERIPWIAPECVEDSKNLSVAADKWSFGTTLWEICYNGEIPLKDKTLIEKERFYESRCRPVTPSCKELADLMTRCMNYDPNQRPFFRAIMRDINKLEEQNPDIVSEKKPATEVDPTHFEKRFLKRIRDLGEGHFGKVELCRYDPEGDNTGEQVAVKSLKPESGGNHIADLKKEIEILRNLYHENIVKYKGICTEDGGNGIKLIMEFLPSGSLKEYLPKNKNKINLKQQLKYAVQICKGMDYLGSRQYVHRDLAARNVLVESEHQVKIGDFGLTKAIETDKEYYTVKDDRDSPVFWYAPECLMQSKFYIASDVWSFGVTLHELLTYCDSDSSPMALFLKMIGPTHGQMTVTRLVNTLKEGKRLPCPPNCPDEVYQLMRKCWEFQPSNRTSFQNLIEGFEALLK

Key:
[1] = system: IL-2 stimulated STAT5 phosphorylation in Tall-1 human T cell line; test: Inhibition of IL-2 stimulated pSTAT5 in Tall-1 T cells; format: cell-based; conditions: TALL-1, 0.5 h, read-out: Tall-1 pIC50 (converted)
Experimental: Assay 2: Inhibition of IL-2 Stimulated pSTAT5 in Tall-1 T Cells
The potency of test compounds for inhibition of interleukin-2 (IL-2) stimulated STAT5 phosphorylation was measured in the Tall-1 human T cell line (DSMZ) using AlphaLisa.
Phosphorylated STAT5 was measured via the AlphaLISA SureFire Ultra pSTAT5 (Tyr694/699) kit (PerkinElmer).
Compounds were serially diluted in DMSO and dispensed acoustically to empty wells. Assay media (phenol red-free DMEM (Life Technologies) supplemented with 10% FBS (ATCC)) was dispensed (4 μL/well) and plates shaken at 900 rpm for 10 mins. […] Phosphorylated STAT5 was measured via the pSTAT5 AlphaLisa kit (PerkinElmer). […] Luminescence was measured with excitation at 689 nm and emission at 570 nm using an EnVision plate reader (PerkinElmer) under green filtered <100 lux light.
To determine the inhibitory potency of test compounds in response to IL-2, the average emission intensity of beads bound to pSTAT5 was measured in a human T cell line. IC50 values were determined from analysis of the inhibition curves of signal intensity versus compound concentration. Data are expressed as pIC50 (negative decadic logarithm IC50) values (mean±standard deviation).

[2] = Lung and plasma drug concentration in the murine IL-13 pSTAT6 model; format: in vivo; conditions: Balb/c, mouse, other: oral aspiration, 50 µg/mouse, lung ng/g to plasma ng/mL at 5 hours, mice, read-out: Lung to Plasma ratio at 5 hr
Experimental: Assay 3: Murine (Mouse) Model of IL-13 Induced pSTAT6 Induction in Lung Tissue
Adult Balb/c mice from Harlan were used in the assay. […] Animals were placed in lateral recumbency post dose and monitored for full recovery from anesthesia before being returned to their home cage. Four hours later, animals were once again briefly anesthetized and challenged with either vehicle or IL-13 (0.03 μg total dose delivered, 50 μL total volume) via oral aspiration before being monitored for recovery from anesthesia and returned to their home cage. One hour after vehicle or IL-13 administration, whole blood and lungs were collected for both pSTAT6 detection in lung homogenates using a Perkin Elmer AlphaLISA® SureFire® Ultra™ HV p-STAT6 (Tyr641) assay kit and for total drug concentration analysis in both lung and plasma. Blood samples were centrifuged (Eppendorf centrifuge, 5804R) for 4 minutes at approximately 12,000 rpm at 4° C. to collect plasma. […] Plasma and lung levels of test compound were determined by LC-MS analysis against analytical standards constructed into a standard curve in the test matrix. A lung to plasma ratio was determined as the ratio of the lung concentration in ng/g to the plasma concentration in ng/mL at 5 hours.

[3] = system: TSLP-evoked TARC release in human peripheral blood mononuclear cells; test: Inhibition of TSLP-evoked TARC release in human peripheral blood mononuclear cells; format: cell-based; conditions: PBMC, 48 h, read-out: pIC50 ± st. dev., inhibition of TSLP-evoked TARC release (converted)
From the text: Assay 4: Inhibition of TSLP-Evoked TARC Release in Human Peripheral Blood Mononuclear Cells
Thymic stromal lymphopoietin (TSLP) and thymus and activation-regulated chemokine (TARC) are overexpressed in asthmatic airways, and correlate with disease severity. In the lungs, TSLP may be released by bronchial epithelial cells in response to allergens and viral infections. TSLP signals through an IL-7Rα/TSLPR heterodimer found in a broad range of tissues and cell types, including epithelial cells, endothelial cells, neutrophils, macrophages, and mast cells. […]
The potencies of the test compounds were measured for inhibition of TARC release. […]
Following stimulation, the cell culture supernatants were harvested and TARC levels were detected by enzyme-linked immunosorbent assay (ELISA), using Human CCL17/TARC Quantikine ELISA Kit (R&D Systems # DDN00) according to the manufacturer's instructions.
For dose response analysis, the log [test compound (M)] was plotted versus the percent response values for each donor, and IC50 values were determined using a nonlinear regression analysis with GraphPad Prism Software using the 4-parameter sigmoidal dose-response algorithm with variable slope. Data are expressed as mean pIC50 (negative decadic logarithm IC50) values calculated from pIC50 values of individual donors and rounded to one decimal place.

JAK1 = JAK1 (Homo sapiens (Human), UniProt P23458); test: Biochemical JAK kinase assay (LanthaScreen), JAK1; conditions: ATP at Km 25 μM; pIC50 converted with Cheng-Prusoff
Experimental: Assay 1: Biochemical JAK Kinase Assays
A panel of four LanthaScreen JAK biochemical assays (JAK1, 2, 3 and Tyk2) were carried in a common kinase reaction buffer (50 mM HEPES, pH 7.5, 0.01% Brij-35, 10 mM MgCl2, and 1 mM EGTA). Recombinant GST-tagged JAK enzymes and a GFP-tagged STAT1 peptide substrate were obtained from Life Technologies.
Serially diluted compounds were pre-incubated with each of the four JAK enzymes and the substrate in white 384-well microplates (Corning) at ambient temperature for 1 h. ATP was subsequently added to initiate the kinase reactions in 10 μL total volume, with 1% DMSO. […] The plates were allowed to incubate at ambient temperature for 1 h before being read on the EnVision reader (Perkin Elmer). Emission ratio signals (520 nm/495 nm) were recorded and utilized to calculate the percent inhibition values based on DMSO and background controls.
For dose-response analysis, percent inhibition data were plotted vs. compound concentrations, and IC50 values were determined from a 4-parameter robust fit model with the Prism software (GraphPad Software). Results were expressed as pIC50 (negative logarithm of IC50) and subsequently converted to pKi (negative logarithm of dissociation constant, Ki) using the Cheng-Prusoff equation.

Row | SMILES | IC50 [1] | Kp at 5 h [2] | IC50 [3] | JAK1 pKi (JAK1)
1 | CCc1cc(O)ccc1-c1ccc2c(-c3nc4c([nH]3)CN(C)[C@H](C(=O)N3CCN(C)C[C@@H]3C)C4)n[nH]c2c1 [Compound 3, ((S)-2,4-dimethylpiperazin-1-yl)((S)-2-(6-(2-ethyl-4-hydroxyphenyl)-1H-indazol-3-yl)-5-methyl-4,5,6,7-tetrahydro-3H-imidazo[4,5-c]pyridin-6-yl)methanone] | 1.58 nM | 411 | 50.1 nM | 
2 | CCc1cc(O)c(F)cc1-c1ccc2c(-c3nc4c([nH]3)CN(C)[C@H](C(=O)N3CCN(C)C[C@@H]3C)C4)n[nH]c2c1 [Compound C-3, ((S)-2,4-dimethylpiperazin-1-yl)((S)-2-(6-(2-ethyl-5-fluoro-4-hydroxyphenyl)-1H-indazol-3-yl)-5-methyl-4,5,6,7-tetrahydro-3H-imidazo[4,5-c]pyridin-6-yl)methanone, reference compound] |  |  |  | 10.2
